Laboratory results reported in patent US11214803B2, “Modulators of YAP1 expression” (Ionis Pharmaceuticals, Inc., priority 2019, dated 2022).

System: SNU449 xenograft tumor
Test: Tumor volume in SNU449 xenograft tumor model, alone and in combination with sorafenib (second Example 30)
Type: in vivo, human
Conditions: oligonucleotide 50 mg/kg, sorafenib 30 mg/kg orally
Description: Modified oligonucleotides described in the studies above were tested in a hepatocellular carcinoma SNU449 xenograft tumor model. In addition to testing the modified oligonucleotide by itself, combination therapy with sorafenib was also tested. A control oligonucleotide 792169, described herein above, was also tested.
Five million SNU449 cells in 30% matrigel were implanted subcutaneously into the fatpads of female NOD.Cg-Prkdcscid II2rgtmlWjl/SzJ mice (from Jackson Laboratory) at 4-6 weeks of age. 43 days post implantation (when tumors had reached approximately 100 mm^3 in size), groups of eight mice each were administered with 50 mg/kg modified oligonucleotide daily for 10 days (loading dose), following which they were administered with 50 mg/kg modified oligonucleotide four times a week for one week, following which they were dosed with 50 mg/kg modified oligonucleotide thrice weekly until the end of the study. Another group of 8 animals was treated with 30 mg/kg of sorafenib orally 7 times a week until end of study. […]
Tumor volumes were also measured at the indicated days in the table below.

CNC(=O)c1cc(Oc2ccc(NC(=O)Nc3ccc(Cl)c(C(F)(F)F)c3)cc2)ccn1 [sorafenib]
Average Tumor Volume (day 60 post tumor implantation): 234 mm^3
Average Tumor Volume (day 64 post tumor implantation): 217 mm^3
